# Laboratory results taken from PubChem BioAssay AID1899 (The Scripps Research Institute Molecular Screening Center, 2009).
# This is a selection; strong and weak results do not stand in their true shares. Some of these compounds have results that are not shown, active ones among them. The source made the active and inactive calls.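 Rule for the calls: active = inhibition above the mean of all tested compounds plus 3 SD, set per screening campaign (cut at about 45% in these data); inactive = the rest.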
# Test system: HCV core protein (residues 1-106) dimerization
# Assay: inhibitors of HCV core protein dimerization, primary screen, biochemical, TR-FRET, high-throughput (AID 1899)
# Details: TR-FRET GST/Flag-core106 dimerization, 1536-well; at 5 µM; active compounds read high
# Procedure, shortened: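 Material: Tagged HCV core106 pair (GST and Flag) | Amount: GST-core106 13.5 nM, Flag-core106 17 nM | Medium: KF-containing HEPES buffer, pH 7.45, DTT, CHAPS, BSA | Reagent: Eu donor and XL665 acceptor anti-tag antibodies | Schedule: 4 h at 22.5 °C | Technique: Time-resolved FRET, ex 340 nm, em 617 and 671 nm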
row,Structure (SMILES),inhibition
1,COc1ccc(C(=O)NCC2(N(C)C)CCCCC2)cc1,inactive: -7.27%
2,CCN1CCCC(OC(=O)C2(O)c3ccccc3C=Cc3ccccc32)C1 (centres undefined),inactive: -3.75%
3,Cc1cc(C(=O)NCC2(N3CCCCC3)CCCCC2)ccc1[N+](=O)[O-],inactive: -13.1%
4,O=C(NCC1(N2CCCCC2)CCCCC1)c1cccc(Br)c1,inactive: -4.16%
5,C=CCN1CCN(CCOC(=O)C(O)(c2ccccc2)c2ccccc2)CC1,inactive: -3.54%
6,O=C(NCC1(N2CCCCC2)CCCCC1)c1cc(F)c(F)cc1Cl,inactive: 1.03%
7,Cc1ccccc1C(=O)NCC1(N2CCCCC2)CCCCC1,inactive: -2.87%
8,CN(C)c1ccc(C(=O)NCC2(N(C)C)CCCCC2)cc1,inactive: -2.63%
9,CN(C)C1CCCC1OC(=O)C(O)(c1ccccc1)c1ccccc1 (centres undefined),inactive: -1.52%
10,Cc1ccc(C(=O)NCC2(N3CCCCC3)CCCCC2)cc1,inactive: 5.51%
11,CCN(CC)CC(C)C(C)OC(=O)C(O)(c1ccccc1)c1ccccc1 (centres undefined),inactive: -1.55%
12,COc1cc(SC)ccc1C(=O)NCC1(N(C)C)CCCCC1,inactive: -0.6%
13,CC(C)N1C(=O)CC2(CCN(CCOC(=O)C(O)(c3ccccc3)c3ccccc3)CC2)C1=O,inactive: -8.54%
14,CN1[C@@H]2CC[C@H]1CC(OC(=O)C(O)(c1ccccc1)c1ccccc1)C2 (some centres undefined),inactive: 10.3%
15,O=C(NCC1(N2CCCCC2)CCCCC1)c1cc([N+](=O)[O-])ccc1Cl,inactive: -1.01%
16,CC(C)Oc1ccc(C(=O)NCC2(N(C)C)CCCCC2)cc1,inactive: -5.4%
17,CN(C)c1cccc(C(=O)NCC2(N(C)C)CCCCC2)c1,inactive: -2.57%
18,COc1ccc(Br)c(C(=O)NCC2(N3CCCCC3)CCCCC2)c1,inactive: -1.11%
19,O=C(OC1CN2CCC1CC2)C(CO)(c1ccccc1)c1ccccc1 (centres undefined),inactive: -2.03%
20,O=C(NCC1(N2CCCCC2)CCCCC1)c1cccc(Cl)c1,inactive: -6.49%
21,COc1cccc(C(=O)NCC2(N3CCCCC3)CCCCC2)c1,inactive: -2.97%
22,COc1ccc(Cl)cc1C(=O)NCC1(N(C)C)CCCCC1,inactive: -0.33%
23,COc1cc(C(=O)NCC2(N(C)C)CCCCC2)c([N+](=O)[O-])cc1OC,inactive: 5.11%
24,CN(C)C1(CNC(=O)c2ccc(Br)cc2)CCCCC1,inactive: 2.66%
